Values quoted from earlier work in article PMC12573178, “Substrate-Guided Development of HDAC11-Selective Inhibitors Featuring α‑Amino Amide Zinc-Binding Groups” (ACS Omega, 2025).

Amino acid sequences for entries named in this document (tags omitted).
UniProt Q96DB2, whole entry: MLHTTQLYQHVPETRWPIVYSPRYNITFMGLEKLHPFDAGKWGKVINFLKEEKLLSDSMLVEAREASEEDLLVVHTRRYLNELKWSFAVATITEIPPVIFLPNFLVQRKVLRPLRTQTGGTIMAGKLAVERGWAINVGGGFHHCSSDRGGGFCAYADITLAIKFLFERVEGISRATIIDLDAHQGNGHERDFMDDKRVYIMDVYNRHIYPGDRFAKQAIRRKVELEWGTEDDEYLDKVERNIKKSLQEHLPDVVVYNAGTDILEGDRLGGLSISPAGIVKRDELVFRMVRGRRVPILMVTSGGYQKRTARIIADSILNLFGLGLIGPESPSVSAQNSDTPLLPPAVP

Molecular target: HDAC11 (Homo sapiens, UniProt Q96DB2)
Details: read-out: IC50 as reported for HDAC11; literature values, Figure 1; ref not printed per compound; cited from earlier work

Compound: CCCCCCN(O)C(=O)CCCCC[C@@H]1NC(=O)[C@H]([C@@H](C)CC)NC(=O)[C@H](Cc2ccccc2C(F)(F)F)NC(=O)CCSCc2cccc(n2)CSCCNC1=O
- IC50: 7.3 nM
